# Measured values: US20140308239A1 (ELEVEN BIOTHERAPEUTICS, published 2014)
# T1: soluble recombinant human IL-1RI (corresponding to the extracellular domain of IL-1RI) (human, UniProt P14778 18-336)
# T1 construct: extracellular domain
# T1 sequence (looked up): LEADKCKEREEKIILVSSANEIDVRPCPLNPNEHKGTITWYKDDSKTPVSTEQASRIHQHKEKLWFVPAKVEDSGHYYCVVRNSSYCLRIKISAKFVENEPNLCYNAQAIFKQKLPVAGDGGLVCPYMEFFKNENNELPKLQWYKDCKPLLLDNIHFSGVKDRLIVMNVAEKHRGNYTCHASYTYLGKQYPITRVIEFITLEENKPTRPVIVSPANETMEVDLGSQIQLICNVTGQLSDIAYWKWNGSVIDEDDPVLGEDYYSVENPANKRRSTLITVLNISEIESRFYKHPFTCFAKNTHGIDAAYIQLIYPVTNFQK
# Biological target: T1, soluble recombinant human IL-1RI …
# Assay: SPR (Reichert SR7000DC), soluble recombinant human IL-1RI, PBS with 0.005% Tween 20
# Method: The binding properties of proteins for soluble recombinant human IL-1RI (corresponding to the extracellular domain of IL-1RI) were evaluated using surface plasmon resonance with a Reichert SR7000DC Dual Channel SPR system. Binding was evaluated in phosphate buffered saline with 0.005% Tween 20. […] Thus, the P01 protein bound to IL-1RI with a greater affinity than did IL-1β under similar conditions.
binder,measurement,value
"IL-1Ra (ligand, UniProt P18510 26-177, looked up) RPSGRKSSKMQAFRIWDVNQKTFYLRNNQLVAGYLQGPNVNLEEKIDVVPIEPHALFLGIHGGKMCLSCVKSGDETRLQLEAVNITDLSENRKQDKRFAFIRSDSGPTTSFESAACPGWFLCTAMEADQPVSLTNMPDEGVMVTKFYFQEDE",Kd,0.326 nM
same,koff,6.58e-05 s⁻¹
same,kon,201000 M⁻¹ s⁻¹
